Test results taken from patent US9766245B2, “Method of detecting cancer based on glycan biomarkers” (California Institute of Technology, priority 2013, dated 2017).

Target: BgtA (Helicobacter mustelae, UniProt D3UIY4)
Assay: Chemoenzymatic labeling of cell lysates, streptavidin capture and Western blotting
Format: biochemical
Settings: rat brain (olfactory bulb) lysates, BgtA + UDP-GalNAz, alkyne-biotin 11, streptavidin capture, immunoblot; in the presence but not absence of BgtA
Procedure: Chemoenzymatic Labeling of Cell Lysates.
The olfactory bulbs of postnatal day 3 rat pups were dissected on ice and lysed in boiling 1% SDS (5 volumes/weight) with sonication until the mixture was homogeneous. Protein was precipitated using methanol/chloroform/water. Briefly, protein was diluted to 200 μL and precipitated by sequential mixing with 600 μL of MeOH, 200 μL of CHCl3 and 450 μL H2O, after which the mixture was centrifuged at 23,000×g for 15 min. Precipitated protein was washed with 450 μL of MeOH and centrifuged at 23,000×g for 10 min. After the protein pellet was allowed to dry briefly, the pellet was re-dissolved at 5 mg/mL in 20 mM HEPES pH 7.9 containing 1% SDS, and diluted 5-fold into a buffer with the following final concentrations: 20 mM HEPES pH 7.9, 50 mM NaCl, 2% NP-40, 5 mM MnCl2. UDP-GalNAz 2 (25 μM; Invitrogen) and BgtA (0.16 mg/mL) were added, and the samples were incubated at 4° C. for 16-20 h. The labeled proteins were precipitated as above and resuspended in 50 mM Tris pH 7.4 containing 1% SDS at 4 mg/mL.
The resuspended proteins were subsequently reacted with alkyne-TAMRA 10 (Invitrogen) or alkyne-biotin 11 (Invitrogen) as per the Click-It™ TAMRA and Biotin Glycoprotein Detection Kit (Invitrogen) instructions, except that EDTA-free Complete™ protease inhibitors were added during the reaction. […]

munc18-1: known Fucα(1-2)Gal glycoprotein in rat brain lysate
chemoenzymatic labeling and detection of glycoprotein: chemoenzymatically labeled and detected
